{"source": "patent US20230174660A1", "about": "“USE OF A MULTIMERIC ANTI-DR5 BINDING MOLECULE IN COMBINATION WITH A CANCER THERAPY FOR TREATING CANCER” (IGM Biosciences, Inc., priority 2020, published 2023)", "key": {"[1]": {"test_system": "HT1080", "test": "Cell Titer Glo viability, Mab A + chemotherapeutic agent, Bliss synergy (Example 1)", "settings": "combination with anti-DR5 IgM Mab A; HT1080, Connective tissue Fibrosarcoma; 72 hours"}, "[2]": {"test_system": "PANC1", "test": "Cell Titer Glo viability, Mab A + chemotherapeutic agent, Bliss synergy (Example 1)", "settings": "combination with anti-DR5 IgM Mab A; PANC1, Pancreas Ductal Adenocarcinoma, exocrine; 72 hours"}, "[3]": {"test_system": "NCIH508", "test": "Cell Titer Glo viability, Mab A + chemotherapeutic agent, Bliss synergy (Example 1)", "settings": "combination with anti-DR5 IgM Mab A; NCIH508, Colorectal Caecum Adenocarcinoma; 72 hours"}, "[4]": {"test_system": "U-937", "test": "Cell Titer Glo viability, Mab A + chemotherapeutic/targeted agent (Example 9)"}, "[5]": {"test_system": "OCI-LY7", "test": "Cell Titer Glo viability, Mab A + chemotherapeutic/targeted agent (Example 9)"}, "[6]": {"test_system": "DOHH-2"}}, "data": [{"molecule": "Oxaliplatin", "values": [{"measurement": "Average Bliss score", "setting": "[1]", "result": "−1"}, {"measurement": "Average Bliss score", "setting": "[2]", "result": 8.9}, {"measurement": "Average Bliss score", "setting": "[3]", "result": 0.75}]}, {"molecule": "CC[C@]1(O)C[C@@H]2C[N@@](CCc3c([nH]c4ccccc34)[C@@](C(=O)OC)(c3cc4c(cc3OC)N(C=O)[C@H]3[C@@](O)(C(=O)OC)[C@H](OC(C)=O)[C@]5(CC)C=CCN6CC[C@]43[C@@H]65)C2)C1", "note": "[vincristine, Vincristine]", "values": [{"measurement": "Average Bliss score", "setting": "[4]", "result": 5.2}, {"measurement": "Average Bliss score", "setting": "[5]", "result": "−1.0"}, {"measurement": "Average Bliss score", "setting": "[6]", "result": "−3.7"}]}]}
